Biological target: CP-MVP-Z recombinant vaults
Assay: ELISA

- EC50: 0.035 nM
Substance: human IgG1k (Sigma) (antibody)
